Values of other authors, collected in patent US10227335B2.
Some compounds may have been tested in ways that are not shown here.

Compound: CCC(=O)N(c1ccccc1)C1(COC)CCN(CCc2cccs2)CC1
- terminal half-life (compared with alfentanil and fentanyl): intermediate between alfentanil and fentanyl
- volume of distribution (compared with fentanyl): smaller
